Type: in vivo, human
Settings: Compound 1 300 mg vs 200 mg
Method: Two open-label, multicenter studies were conducted to evaluate the efficacy, safety, and pharmacokinetics of co-administration of Compound 1 (200 or 300 mg QD) and Compound 2 (40 or 120 mg QD) with or without RBV in GT1-, GT2- or GT3-infected subjects. Blood samples for pharmacokinetic analysis were collected throughout the study treatment period.

In the case of CC(C)(C)[C@@H]1NC(=O)O[C@@H]2CCC[C@H]2OC/C=C/C(F)(F)c2nc3ccccc3nc2O[C@@H]2C[C@@H](C(=O)N[C@]3(C(=O)NS(=O)(=O)C4(C)CC4)C[C@H]3C(F)F)N(C2)C1=O [Compound 1], the “steady state exposure following 300 mg relative to 200 mg” value is reported as “approximately 3.7 fold”.

— patent US11484534B2, “Methods for treating HCV” (priority 2013, dated 2022)
